Laboratory results published in US11000601B2, “Conjugated biological molecules, pharmaceutical compositions and methods” (OBI Pharma, Inc., priority 2016, dated 2021).
Values joined by “and” are separate entries in the source; they are usually repeats but may differ in a detail not shown here. Equal entries are not always repeated.

Tests used:
[1] = Body weight in male BALB/c nude mice bearing HPAC established tumors; conditions: QW x 4, ADC (OBI-999) and OBI-888 10 mg/kg IV, MMAE 0.191 mg/kg IP; for Body weight: individual animals; for Body Weight (g), Mean: group mean
[2] = Body weight, mortality and signs of overt toxicity in MCF-7 implanted female nude (nu/nu) mice; format: in vivo, mouse
Procedure: In a xenograft tumor model of human breast adenocarcinoma, MCF-7 (ATCC HTB-22) cells were subcutaneously (SC) implanted (2.0×10^7 cells in 1:1 matrigel/media mixture at 0.2 mL/mouse) into the right flank of female athymic (nu/nu) nude mice. Supplemental injections of estradiol cyclopentyl propionate (100 μg/mouse) were administered subcutaneously between the scapulae twice weekly, from one week prior to cell implantation to study completion. Tumor-implanted mice were divided into eleven treatment groups, each group containing six animals, and test agent administrations were initiated one day after cell implantation (denoted as Day 1). 3.1 Test Substances and Dosing Pattern
Two control groups received intravenous injections of vehicle (25 mM Sodium Citrate, pH 6.5+100 mM NaCl) once weekly for either six weeks (group 1) or two weeks (group 2). […] Test substance, OBI-888, was dosed at 10 mg/kg once weekly for 2 weeks, and at 0.3, 1 and 3 mg/kg once weekly for six weeks. Test substance, MMAE, was dosed at 0.057 mg/kg once weekly for six weeks.
Female (nu/nu) nude mice aged 6-7 weeks obtained from BioLasco Taiwan (under Charles River Laboratories Licensee) were used. The animals were housed in individually ventilated cages (IVG, 36 Mini Isolator System). The allocation for 3-5 animals was 27×20×14 in cm. All animals were maintained in a hygienic environment under controlled temperature (20-24° C.) and humidity (30-70%) with 12-hour light/dark cycle. Free access to standard lab diet (Oriental Yeast Co., Ltd., Japan) and autoclaved tap water were granted. All aspects of this work including housing, experimentation, and animal disposal were performed in general accordance with the “Guide for the Care and Use of Laboratory Animals: Eighth Edition” (National Academies Press, Washington, D.C., 2011) in our AAALAC-accredited laboratory animal facility. In addition, the animal care and use protocol was reviewed and approved by the IACUC at Eurofins Panlabs Taiwan, Ltd.
The tumor volumes, body weights, mortality, and signs of overt toxicity were monitored and recorded twice weekly for 77 days. Tumor volume (mm^3) was calculated according to the formula for a prolate ellipsoid: length (mm)×[width (mm)]^2×0.5. Tumor growth inhibition was calculated as T/C (treatment/control)×100%. A T/C value≤42% was considered significant anti-tumor activity. Two-way ANOVA followed by Bonferroni test was used to ascertain the statistical significance of groups compared to respective vehicle control (*p<0.05).

[3] = Body weight, mortality and signs of overt toxicity in NCI-H526 implanted female nu/nu mice; format: in vivo, mouse; conditions: group mean
Procedure: In a xenograft tumor model of human small cell lung cancer, viable NCI-H526 stage E carcinoma; variant small cell lung cancer cells (ATCC CRL-5811), were subcutaneously (SC) implanted (1×10^6 cells with matrigel (1:0.8) in 0.2 mL/mouse) into the right flank of female nu/nu mice. Tumor implanted mice were divided into five treatment groups, each group containing eight animals, and test agent administrations were initiated one day after cell implantation (denoted as Day 1).
Female nu/nu nude, aged 6-7 weeks, were obtained from BioLasco Taiwan (under Charles River Laboratories Licensee) and used. The animals were housed in individually ventilated cages (IVC, 36 Mini Isolator system). The allocation for 5 animals was 27×20×14 in cm. All animals were maintained in a hygienic environment under controlled temperature (20-24° C.) and humidity (30-70%) with 12-hour light/dark cycle. Free access to standard lab diet [MFG (Oriental Yeast Co., Ltd., Japan)] and autoclaved tap water were granted. All aspects of this work including housing, experimentation, and animal disposal were performed in general accordance with the “Guide for the Care and Use of Laboratory Animals: Eighth Edition” (National Academies Press, Washington, D.C., 2011) in our AAALAC-accredited laboratory animal facility. In addition, the animal care and use protocol was reviewed and approved by the IACUC at Eurofins Panlabs Taiwan, Ltd.
The tumor volumes, body weights, mortality, and signs of overt toxicity were monitored and recorded twice weekly for 45 days. Tumor growth inhibition was calculated as T/C (treatment/control)×100%. A T/C value≤42% compared to that of the vehicle control group was considered significant anti-tumor activity. Two-way ANOVA followed by Bonferroni test was used to ascertain the statistically significant significance of groups compared to respective vehicle control (*p<0.05).

## CC[C@H](C)[C@@H]([C@@H](CC(=O)N1CCC[C@H]1[C@H](OC)[C@@H](C)C(=O)N[C@H](C)[C@@H](O)c1ccccc1)OC)N(C)C(=O)[C@@H](NC(=O)[C@@H](NC)C(C)C)C(C)C [MMAE, monomethyl auristatin E]
[1]; Day 0
  Body weight: 24.3 g and 24.8 g and 24.5 g
[1]; Day 4
  Body weight: 24.9 g and 23.7 g
[1]; Day 7
  Body weight: 25.2 g
[1]; Day 9
  Body Weight (g), Mean: 24.3 g
  Body weight: 24.9 g (2×) and 25.9 g and 23.5 g
[1]; Day 10
  Body Weight (g), Mean: 25.5 g
  Body weight: 25.9 g and 26.3 g and 25.3 g and 24.1 g
[1]; Day 14
  Body Weight (g), Mean: 25.3 g
  Body weight: 25.7 g and 26.2 g and 24.5 g
[1]; Day 17
  Body Weight (g), Mean: 24.6 g
  Body weight: 24.5 g and 25.3 g
[1]; Day 21
  Body Weight (g), Mean: 25.2 g
  Body weight: 25.6 g and 26.2 g and 24.7 g and 25.7 g
[1]; Day 24
  Body Weight (g), Mean: 24.9 g
  Body weight: 24.8 g and 25.7 g and 24.9 g and 25.6 g and 23.7 g
[1]; Day 28
  Body weight: 26.2 g and 25.3 g and 24.9 g and 26.3 g and 24.1 g
[1]; Day 31
  Body Weight (g), Mean: 25.2 g
  Body weight: 25.2 g and 26.4 g and 24.1 g
[1]; Day 35
  Body weight: 26.9 g and 25.6 g (2×) and 24.5 g
[1]; Day 37
  Body Weight (g), Mean: 25.7 g
  Body weight: 25.3 g and 25.5 g and 27.1 g
[2]; 0.057 mg/kg × 6, IV once weekly, Day 53, group mean
  Body Weight (g), Mean: 25.3 g
[2]; 0.057 mg/kg × 6, IV once weekly, Day 56, group mean
  Body Weight (g), Mean: 25.2 g
[2]; 0.057 mg/kg × 6, IV once weekly, Day 60, group mean
  Body Weight (g), Mean: 26.5 g
[2]; 0.057 mg/kg × 6, IV once weekly, Day 63, group mean
  Body Weight (g), Mean: 26.5 g
[2]; 0.057 mg/kg × 6, IV once weekly, Day 67, group mean
  Body Weight (g), Mean: 26.8 g
[2]; 0.057 mg/kg × 6, IV once weekly, Day 70, group mean
  Body Weight (g), Mean: 26.5 g
[2]; 0.057 mg/kg × 6, IV once weekly, Day 77, group mean
  Body Weight (g), Mean: 26.3 g
[2]; 0.057 mg/kg × 6 IV once weekly, Day 12, mean of 6 mice
  Body Weight (g), Mean: 24.8 g
[2]; 0.057 mg/kg × 6 IV once weekly, Day 15, mean of 6 mice
  Body Weight (g), Mean: 25.5 g
[2]; 0.057 mg/kg × 6 IV once weekly, Day 22, mean of 6 mice
  Body Weight (g), Mean: 25.5 g
[2]; 0.057 mg/kg × 6 IV once weekly, Day 26, mean of 6 mice
  Body Weight (g), Mean: 25.2 g
[2]; Gr. 11, 0.057 mg/kg × 6 IV once weekly, Day 29, group mean
  Body Weight (g), Mean: 25.3 g
[2]; Gr. 11, 0.057 mg/kg × 6 IV once weekly, Day 33, group mean
  Body Weight (g), Mean: 25.3 g
[2]; Gr. 11, 0.057 mg/kg × 6 IV once weekly, Day 36, group mean
  Body Weight (g), Mean: 25.7 g
[2]; Gr. 11, 0.057 mg/kg × 6 IV once weekly, Day 40, group mean
  Body Weight (g), Mean: 25.8 g
[2]; Gr. 11, 0.057 mg/kg × 6 IV once weekly, Day 43, group mean
  Body Weight (g), Mean: 25.2 g
[2]; Gr. 11, 0.057 mg/kg × 6 IV once weekly, Day 46, group mean
  Body Weight (g), Mean: 25.2 g
[2]; Gr. 11, 0.057 mg/kg × 6 IV once weekly, Day 49, group mean
  Body Weight (g), Mean: 25.5 g
[3]; Day 8, NCI-H526 xenograft, female nu/nu mice, OBI-999/OBI-888 10 mg/kg IV, MMAE 0.191 mg/kg IP, once weekly x 4
  Body Weight (g), Mean: 24.5 g
[3]; Day 11, NCI-H526 xenograft, female nu/nu mice, OBI-999/OBI-888 10 mg/kg IV, MMAE 0.191 mg/kg IP, once weekly x 4
  Body Weight (g), Mean: 24.9 g
[3]; Day 22, NCI-H526 xenograft, female nu/nu mice, OBI-999/OBI-888 10 mg/kg IV, MMAE 0.191 mg/kg IP, once weekly x 4
  Body Weight (g), Mean: 25.5 g
[3]; Day 25, NCI-H526 xenograft, female nu/nu mice, OBI-999/OBI-888 10 mg/kg IV, MMAE 0.191 mg/kg IP, once weekly x 4
  Body Weight (g), Mean: 26.5 g
[3]; Day 29, NCI-H526 xenograft, female nu/nu mice, OBI-999/OBI-888 10 mg/kg IV, MMAE 0.191 mg/kg IP, once weekly x 4
  Body Weight (g), Mean: 27.6 g
[3]; Day 36, NCI-H526 xenograft, female nu/nu mice, OBI-999/OBI-888 10 mg/kg IV, MMAE 0.191 mg/kg IP, once weekly x 4
  Body Weight (g), Mean: 28.9 g
[3]; Gr. 8, 0.191 mg/kg × 4 IP once weekly, Day 57
  Body Weight (g), Mean: 26.4 g
[3]; Gr. 8, 0.191 mg/kg × 4 IP once weekly, Day 60
  Body Weight (g), Mean: 26.9 g
[3]; Gr. 8, 0.191 mg/kg × 4 IP once weekly, Day 67
  Body Weight (g), Mean: 27.3 g
[3]; Gr. 8, 0.191 mg/kg × 4 IP once weekly, Day 70
  Body Weight (g), Mean: 26.4 g
[3]; Gr. 8, 0.191 mg/kg × 4 IP once weekly, Day 74
  Body Weight (g), Mean: 26.6 g
[3]; Gr. 8, 0.191 mg/kg × 4 IP once weekly, Day 78
  Body Weight (g), Mean: 27.3 g
[3]; Gr. 8, 0.191 mg/kg × 4 IP once weekly, Day 81
  Body Weight (g), Mean: 26.9 g
[3]; Gr. 8, 0.191 mg/kg × 4 IP once weekly, Day 85
  Body Weight (g), Mean: 26.9 g
[3]; Gr. 8, 0.191 mg/kg × 4 IP once weekly, Day 88
  Body Weight (g), Mean: 27.1 g
[3]; Gr. 8, 0.191 mg/kg × 4 IP once weekly, Day 91
  Body Weight (g), Mean: 27.3 g
[3]; Gr. 8, 0.191 mg/kg × 4 IP once weekly, Day 95
  Body Weight (g), Mean: 27.4 g
[3]; Gr. 8, 0.191 mg/kg × 4 IP once weekly, Day 98
  Body Weight (g), Mean: 27.6 g
